Reference: BindingDB's records for US9333195

By UniProt entry, the sequences of proteins in these tests, tags left out.
UniProt P20309, whole entry, looked up: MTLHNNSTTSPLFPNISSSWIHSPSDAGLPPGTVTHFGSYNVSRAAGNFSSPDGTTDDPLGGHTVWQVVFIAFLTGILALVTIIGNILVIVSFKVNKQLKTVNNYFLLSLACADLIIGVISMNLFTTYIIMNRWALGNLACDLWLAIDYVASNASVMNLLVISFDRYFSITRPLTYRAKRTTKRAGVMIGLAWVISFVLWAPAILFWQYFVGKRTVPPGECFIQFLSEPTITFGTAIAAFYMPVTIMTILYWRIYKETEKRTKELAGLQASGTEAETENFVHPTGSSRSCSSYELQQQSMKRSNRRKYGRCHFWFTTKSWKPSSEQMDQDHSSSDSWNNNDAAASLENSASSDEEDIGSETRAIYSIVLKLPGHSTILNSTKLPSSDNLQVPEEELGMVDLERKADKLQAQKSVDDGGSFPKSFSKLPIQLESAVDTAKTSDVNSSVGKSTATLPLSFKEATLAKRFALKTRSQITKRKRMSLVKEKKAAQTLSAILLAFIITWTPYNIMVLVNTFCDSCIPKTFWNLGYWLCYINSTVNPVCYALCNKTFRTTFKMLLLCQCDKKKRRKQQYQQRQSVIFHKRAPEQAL

Biological target: Muscarinic acetylcholine receptor M3 (Homo sapiens, UniProt P20309)
Assay: [3H]-NMS Binding Assay

`O=C(O[C@H]1C[N+]2(CCc3cccs3)CCC1CC2)C(O)(c1cccs1)c1cccs1` gave a pIC50 of 8.51.

pIC50: −log10 of the molar value.
